Yeast mating assay 1: variants of the scFv Ab-14

The target is the same throughout: PDVDLGDISGINAS, from the HR2 region of SARS-CoV-2 spike.

The variants keep the light chain, the linker and the frameworks of Ab-14 (scFv order VH, the linker GGGGSGGGGSGGGGS, VL).
VH: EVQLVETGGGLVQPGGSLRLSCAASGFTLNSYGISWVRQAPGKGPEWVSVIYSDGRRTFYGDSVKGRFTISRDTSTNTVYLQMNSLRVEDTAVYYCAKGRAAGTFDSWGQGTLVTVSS
VL: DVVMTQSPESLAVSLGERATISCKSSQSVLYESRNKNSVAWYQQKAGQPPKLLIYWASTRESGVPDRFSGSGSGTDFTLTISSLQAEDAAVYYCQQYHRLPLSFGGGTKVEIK

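The starting antibody came from a phage panning campaign against this peptide. Variants in AAYL49 differ from the parent at up to three CDR positions; double and triple changes were sampled at random. The assay is AlphaSeq: two haploid yeast populations carry antibody and antigen on their surface. The frequency of each diploid, read from paired DNA barcodes, reflects how well the two displayed proteins bind. Each replicate has its own calibration line, from reference interactions of the BCL2 family. The assay was run in three technical replicates.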

Each variant is given by its three heavy chain CDRs, as the data file delimits them; those of the parent are GFTLNSYGIS, VIYSDGRRTFYGDSVK, GRAAGTFDS. All variants listed here change G61 of the VH, counted from its first residue. Scale: log10 of Kd in nM, estimated from mating counts; low values are strong binders. Where no diploid with the target was found in that replicate, the entry reads "nd": below detection, most likely a poor binder, though not proof of it.

* GFTLNSYGIS | VGYSDGRRTFYDDSVK | GRAAGPFDS: nd, 4.27, 6.25
* GKTLNSYGIS | VIYEDGRRTFYLDSVK | GRAAGTFDS: nd, nd, nd
* GFTLNSYGIS | VIYSDGRRTFYMMSVK | GRAAGTFWS: nd, 3.95, nd
* GFYLNDYGIS | VIYSDGRRTFYNDSVK | GRAAGTFDS: 1.07, 1.03, 1.06
* GFTLNSYGIS | VIYSDGRRTFYYDSVK | GRAAGTMDS: nd, nd, nd
* GFTSNSYGIS | VIYSFGRRTFYIDSVK | GRAAGTFDS: nd, nd, nd
* GFTLNSYGIS | VIYSDGGRTFYPDSVK | GRPAGTFDS: 4.31, nd, nd
* GFALNSYGIS | VIYSDGRITFYKDSVK | GRAAGTFDS: 5.89, nd, 3.94
* KFTLNSYGIS | VIYSDGRRTFYTDSVK | GRAAGAFDS: nd, nd, nd
* GFTLNSYGIS | VNYSDGRRTFYQDSVK | GWAAGTFDS: nd, 3.34, nd
* GFTLNSYGIS | VIYSDGRRTFYLDSVK | PRAAGTFDS: nd, nd, nd
* GFTLNSYGIS | VIYKVGRRTFYIDSVK | GRAAGTFDS: nd, nd, nd
* GFQLNSYGIS | VIYSDGRATFYWDSVK | GRAAGTFDS: nd, 4.80, 3.86
* GFTLNSYGIS | VIRSDGRRTFYWDSVK | GRAAGTFKS: nd, nd, nd
* GFTLNSYGIS | VIYSDGTRTFYPDSVK | GRAAGMFDS: 5.01, nd, nd
* GFTLNSYGIS | VIYSDGIRTFYFDSVK | GKAAGTFDS: 2.70, 2.57, 2.76
* GFTLNSYGIS | VIYSDGRRTFYKNSVK | GRAMGTFDS: 1.96, 2.07, 2.53
* GFTLWSFGIS | VIYSDGRRTFYKDSVK | GRAAGTFDS: 1.73, 1.93, 2.27
* GFTLNSYGIS | VIMSDGRRTQYHDSVK | GRAAGTFDS: nd, nd, nd
* GFTLNSYGIS | VIQSDGRRTFYIDNVK | GRAAGTFDS: nd, nd, nd
* GFTLNSYGIS | VIYSDGRRTFYADSVK | GRAAFDFDS: 1.25, 1.39, 1.53
* GFTLNSYGIS | VIYSQGRYTFYTDSVK | GRAAGTFDS: nd, nd, nd
* GFTLNSYGIS | VIYSDGRRTFYYDSVK | GAAAGTFDS: nd, nd, nd
* GFTLNSYGLS | VIYSDGRRTFYVDSVK | FRAAGTFDS: nd, nd, nd
* GFTLNSYGIS | VHYSDGYRTFYIDSVK | GRAAGTFDS: nd, nd, 4.81
* GFTLNSYGIE | VIYSDGRRTFYWQSVK | GRAAGTFDS: nd, nd, nd
* GFTLNSYGIS | VIYSDFRRTFYQDSVK | GRAAGFFDS: 4.30, nd, nd
* GFTLNSYGIS | VIQSDGRRTFYSDSVK | GRGAGTFDS: nd, nd, nd
* GFTLNLYGIS | VIYSDGRRTFYHDSVK | GRAAGTFDS: 0.72, 0.89, 0.70
* GFTLNSYGIS | VIYSDRRRTFYKDSVK | GRAAGGFDS: nd, 5.25, 3.95
* GFTLNSYGIS | VIYSDGRRAFYLDGVK | GRAAGTFDS: 2.84, 2.53, 2.92
* GFTLNSYGIS | AIYSDGRRTFYEDSVK | GRAAGTFDC: nd, nd, nd
* GFTLNSYGIS | VIPSDGRRTFYEDSVK | GRAAGYFDS: nd, nd, nd
* GFTLTSYGIS | VIYSDGRRTFYKDSVK | GRAAGTNDS: 3.36, nd, nd
* GFYLNTYGIS | VIYSDGRRTFYVDSVK | GRAAGTFDS: 2.25, nd, nd
* GFTLNSYGWS | VIYSDGRITFYFDSVK | GRAAGTFDS: nd, nd, nd
* GFTLNRYGIS | VIYSDGRRTFYVDSVK | GRAAGTFDS: 1.63, 2.31, 1.07
* GFTINSYGIS | VIYSDGRRTFYWDSVK | GRAAGTFDQ: nd, 3.01, nd
* GFTLNTYGIS | VIYSDGRRTFYTISVK | GRAAGTFDS: 5.05, 5.30, nd
* GFTLNSYGIS | VIYSDGRRTFYYDSVK | GRAAGTFGS: nd, nd, nd
* GFTLNDYGIS | VIYSDGRRTFYSDSVK | DRAAGTFDS: 0.41, 0.42, 0.14
* GFTLNSYGIS | VIYSDFRHTFYPDSVK | GRAAGTFDS: nd, nd, nd
* GFTLNSYGIS | VIYSDGMRTFYYDSVK | GRAAGTFDS: 3.24, 3.13, 2.58
* GFTLNSEGIS | VIYVDGRRTFYHDSVK | GRAAGTFDS: 3.14, 1.66, 1.77
* GFTLNSYGIS | VIYSDGRRTFYQDSVK | RRAAGTFDS: 2.38, 2.30, 2.53
* YFTLNSYGIS | VIYSDGRRTFYEDSVK | GRAAGTFDS: 3.22, 2.30, 2.97
* GFTLNSYGIS | VIYSDGRRTFYHDSVK | GRAVGTFDS: nd, nd, nd

The 6 strongest on average among those seen in every replicate, once more:

{"CDR-H1": "GFTLNDYGIS", "CDR-H2": "VIYSDGRRTFYSDSVK", "CDR-H3": "DRAAGTFDS", "log10 Kd (nM) by replicate": "0.41, 0.42, 0.14"}
{"CDR-H1": "GFTLNLYGIS", "CDR-H2": "VIYSDGRRTFYHDSVK", "CDR-H3": "GRAAGTFDS", "log10 Kd (nM) by replicate": "0.72, 0.89, 0.70"}
{"CDR-H1": "GFYLNDYGIS", "CDR-H2": "VIYSDGRRTFYNDSVK", "CDR-H3": "GRAAGTFDS", "log10 Kd (nM) by replicate": "1.07, 1.03, 1.06"}
{"CDR-H1": "GFTLNSYGIS", "CDR-H2": "VIYSDGRRTFYADSVK", "CDR-H3": "GRAAFDFDS", "log10 Kd (nM) by replicate": "1.25, 1.39, 1.53"}
{"CDR-H1": "GFTLNRYGIS", "CDR-H2": "VIYSDGRRTFYVDSVK", "CDR-H3": "GRAAGTFDS", "log10 Kd (nM) by replicate": "1.63, 2.31, 1.07"}
{"CDR-H1": "GFTLWSFGIS", "CDR-H2": "VIYSDGRRTFYKDSVK", "CDR-H3": "GRAAGTFDS", "log10 Kd (nM) by replicate": "1.73, 1.93, 2.27"}

As a blank, each scFv also met three strains without target: over library AAYL49, 15% of these pairings were detected, typically at 4.06 and seldom below 2.83.

Values reported by Engelhart et al. 2022, doi:10.1038/s41597-022-01779-4 (FLAb copy).